{
  "source": "ChEMBL document CHEMBL1124121",
  "about": "“Occurrence and pharmacological significance of metabolic ortho-hydroxylation of 5- and 8-hydroxy-2-(di-n-propylamino)tetralin” (1988)",
  "key": {"Rattus norvegicus [1]": {"organism": "Rattus norvegicus", "test": "Apparent kinetic constant(Km) for the aromatic hydroxylation on crude rat liver microsomes.", "type": "functional, organism-based", "outline": "(§1)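 Crude rat liver microsomes (0.5 mg protein/mL) were incubated with substrate at 37 °C for 3 min in 0.1 M Tris, pH 7.4, with 0.1 mM NADPH and MgCl₂. The reaction was stopped with perchloric acid. Catechol products in the supernatant were measured by HPLC with electrochemical detection. Apparent Km and Vmax came from Lineweaver-Burk plots of 3–4 substrate concentrations, each run in triplicate.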"}, "[2]": {"test": "Ratio of Km to that Vmax in crude rat liver microsomes was determined", "settings": "Microsome"}, "Rattus norvegicus [3]": {"organism": "Rattus norvegicus", "test": "Apparent kinetic constant(Vmax) for the aromatic hydroxylation on crude rat liver microsomes at 1 mg of protein", "type": "functional", "outline": "as §1"}},
  "data": [
    {"smiles": "CCCN(CCC)C1CCc2cccc(O)c2C1", "note": "(stereo not drawn) [8-OH-DPAT]", "values": [
      {"measurement": "Km", "setting": "Rattus norvegicus [1]", "result": 80, "unit": "µM"},
      {"measurement": "Ratio", "setting": "[2]", "result": 9380},
      {"measurement": "Vmax", "setting": "Rattus norvegicus [3]", "result": 750, "unit": "pM/min"}
    ]}
  ]
}
